In patent US7420037B2, “Heat shock protein-based vaccines and immunotherapies” (Antigenics Inc., priority 2003, dated 2008):
pKd: −log10 of the molar value.

Target: recombinant human or murine heat shock protein 70 (hsp70)
Type: binding
Settings: read-out: Epitope alone: Affinity for hsp70

For SLLMWITQV [reference compound], the pKd was 3.94.
